Patent publication US5854204A, “Aβ peptides that modulate β-amyloid aggregation” (priority 1996, dated 1998)

Sequences of proteins named here, by UniProt entry; tags and fusion partners are left off. Residues count along the entry.
UniProt P05067, 672-711: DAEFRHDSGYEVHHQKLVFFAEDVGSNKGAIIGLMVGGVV

Biological target: Aβ1-40 (Homo sapiens, UniProt P05067)
Conditions: Table II; 100 mole % relative to 50 μM Aβ1-40
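Also: Aβ nucleation assay tracking fiber polymerization from monomer by turbidity (light scattering), shaken continuously in 96-well plates, read every 15 min over 5 h, compared with compound-free control.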

Compound: CC(C)[C@H](NC(=O)[C@H](CCC(=O)O)NC(=O)[C@H](Cc1ccc(O)cc1)NC(=O)CNC(=O)[C@H](CO)NC(=O)[C@H](CC(=O)O)NC(=O)[C@H](Cc1c[nH]cn1)NC(=O)[C@H](CCCNC(=N)N)NC(=O)[C@H](Cc1ccccc1)NC(=O)[C@H](CCC(=O)O)NC(=O)[C@H](C)NC(=O)[C@H](CC(=O)O)NC(=O)CCCC[C@@H]1SC[C@@H]2NC(=N)N[C@@H]21)C(=O)N[C@@H](Cc1c[nH]cn1)C(=O)N[C@@H](Cc1c[nH]cn1)C(=O)N[C@@H](CCC(N)=O)C(=O)O [PPI-172]
- Fold Increase in Lag Time: 1.2 fold
